Data taken from ChEMBL document CHEMBL1141614, “Selective COX-2 inhibitors. Part 2: synthesis and biological evaluation of 4-benzylideneamino- and 4-phenyliminomethyl-benzenesulfonamides” (Bioorg Med Chem, 2008).

The chains behind the UniProt entries cited, without tags or fusion partners.
UniProt P23219, whole entry: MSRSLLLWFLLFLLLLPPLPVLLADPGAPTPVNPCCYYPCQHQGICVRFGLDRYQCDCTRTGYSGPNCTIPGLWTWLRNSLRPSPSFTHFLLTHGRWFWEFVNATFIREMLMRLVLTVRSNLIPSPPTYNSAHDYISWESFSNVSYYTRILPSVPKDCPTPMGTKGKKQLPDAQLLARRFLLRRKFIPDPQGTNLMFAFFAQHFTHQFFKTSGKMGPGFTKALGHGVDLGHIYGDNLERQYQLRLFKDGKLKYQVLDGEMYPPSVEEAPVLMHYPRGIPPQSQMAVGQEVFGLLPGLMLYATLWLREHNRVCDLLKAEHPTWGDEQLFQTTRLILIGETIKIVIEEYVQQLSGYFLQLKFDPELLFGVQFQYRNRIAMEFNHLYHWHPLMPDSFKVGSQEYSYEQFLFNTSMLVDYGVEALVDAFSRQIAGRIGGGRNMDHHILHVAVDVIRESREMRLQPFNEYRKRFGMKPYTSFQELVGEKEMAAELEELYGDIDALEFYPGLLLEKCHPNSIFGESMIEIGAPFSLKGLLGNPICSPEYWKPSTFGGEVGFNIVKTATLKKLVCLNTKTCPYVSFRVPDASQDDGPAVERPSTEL

Target: Prostaglandin G/H synthase 1 (Homo sapiens, UniProt P23219)
Assay type: tissue-based, Blood

SMILES: Oc1ccc(/C=C/c2cc(O)cc(O)c2)cc1 [RESVERATROL]
- IC50: 4.12 µM
